IC50 data for four compounds are collected here from ChEMBL document CHEMBL2046432, “Novel 5-substituted benzyloxy-2-arylbenzofuran-3-carboxylic acids as calcium activated chloride channel inhibitors” (Bioorg Med Chem, 2012).

The target of this assay is T1, Anoctamin-1 (Homo sapiens, UniProt Q5XXA6).
T1 sequence (Q5XXA6 whole entry): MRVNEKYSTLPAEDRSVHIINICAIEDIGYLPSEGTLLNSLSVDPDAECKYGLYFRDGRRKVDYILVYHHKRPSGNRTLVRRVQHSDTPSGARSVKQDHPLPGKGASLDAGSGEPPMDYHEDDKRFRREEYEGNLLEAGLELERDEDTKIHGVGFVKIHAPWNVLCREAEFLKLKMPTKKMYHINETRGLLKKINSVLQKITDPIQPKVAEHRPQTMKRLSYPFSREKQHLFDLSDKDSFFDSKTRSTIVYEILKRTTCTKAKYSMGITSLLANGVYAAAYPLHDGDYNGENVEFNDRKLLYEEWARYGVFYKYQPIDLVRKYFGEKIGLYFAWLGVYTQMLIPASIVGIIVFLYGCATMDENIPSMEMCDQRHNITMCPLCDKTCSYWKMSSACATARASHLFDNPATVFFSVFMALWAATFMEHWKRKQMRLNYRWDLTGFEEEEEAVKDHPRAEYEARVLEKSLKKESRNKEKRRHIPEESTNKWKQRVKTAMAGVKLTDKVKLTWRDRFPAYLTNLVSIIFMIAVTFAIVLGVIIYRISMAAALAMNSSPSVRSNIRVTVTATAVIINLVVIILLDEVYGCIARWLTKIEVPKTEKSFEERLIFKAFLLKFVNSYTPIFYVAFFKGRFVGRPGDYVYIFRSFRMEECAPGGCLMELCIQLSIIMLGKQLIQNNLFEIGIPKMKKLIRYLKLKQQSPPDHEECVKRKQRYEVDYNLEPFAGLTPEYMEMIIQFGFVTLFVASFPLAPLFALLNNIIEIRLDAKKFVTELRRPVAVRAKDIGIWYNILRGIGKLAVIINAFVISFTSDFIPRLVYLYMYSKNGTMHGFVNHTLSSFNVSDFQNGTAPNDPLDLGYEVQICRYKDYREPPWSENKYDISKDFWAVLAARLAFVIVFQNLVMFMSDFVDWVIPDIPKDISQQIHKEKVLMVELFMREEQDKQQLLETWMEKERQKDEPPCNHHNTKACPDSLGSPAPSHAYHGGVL
The assay can be described thus: Inhibition of human TMEM16A transfected in FRT cells assessed as iodide influx using YFP-F46L/H148Q/I152L halide sensor after 10 mins by spectrofluorometric analysis. Type of assay: cell-based. An outline of the steps:
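FRT cells stably co-expressing TMEM16A and YFP-F46L/H148Q/I152L, plated 20,000 cells/well, cultured 2 days. Washed in PBS, compounds added at several concentrations for 10 min. Fluorescence recorded 2 s baseline, then 140 mM iodide plus ATP (200 μM) solution added to raise calcium. Initial iodide influx rate fitted by nonlinear regression; IC50 mean ± S.E., n = 3.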
As for `Cc1ccc(-c2oc3ccc(OCc4c(F)cccc4F)cc3c2C(=O)O)cc1`, the IC50 (usually the concentration that gives 50% inhibition) was 23 µM.
For `Cc1ccc(-c2oc3ccc(OCc4ccc(F)c(F)c4)cc3c2C(=O)O)cc1`, the IC50 is 9 µM.
In the case of `O=C(O)c1c(-c2ccc3ccccc3c2)oc2ccc(OCc3cccc(C(F)(F)F)c3)cc12`, the IC50 came out at 10.4 µM.
Take `O=C(O)c1c(-c2ccc3ccccc3c2)oc2ccc(OCc3ccccc3Br)cc12`: the IC50 amounted to 5.2 µM.
